Source: patent US12043613B2, “Inhibitors of SARM1” (Disarm Therapeutics, Inc., priority 2020, dated 2024)

Amino acid sequences for entries named in this document (tags omitted). Chains listed by the source or under a name are the forms on record and can include a tag or linker. Residues count along the entry.
UniProt Q6SZW1, 28-724 with tags or gaps limits assumed: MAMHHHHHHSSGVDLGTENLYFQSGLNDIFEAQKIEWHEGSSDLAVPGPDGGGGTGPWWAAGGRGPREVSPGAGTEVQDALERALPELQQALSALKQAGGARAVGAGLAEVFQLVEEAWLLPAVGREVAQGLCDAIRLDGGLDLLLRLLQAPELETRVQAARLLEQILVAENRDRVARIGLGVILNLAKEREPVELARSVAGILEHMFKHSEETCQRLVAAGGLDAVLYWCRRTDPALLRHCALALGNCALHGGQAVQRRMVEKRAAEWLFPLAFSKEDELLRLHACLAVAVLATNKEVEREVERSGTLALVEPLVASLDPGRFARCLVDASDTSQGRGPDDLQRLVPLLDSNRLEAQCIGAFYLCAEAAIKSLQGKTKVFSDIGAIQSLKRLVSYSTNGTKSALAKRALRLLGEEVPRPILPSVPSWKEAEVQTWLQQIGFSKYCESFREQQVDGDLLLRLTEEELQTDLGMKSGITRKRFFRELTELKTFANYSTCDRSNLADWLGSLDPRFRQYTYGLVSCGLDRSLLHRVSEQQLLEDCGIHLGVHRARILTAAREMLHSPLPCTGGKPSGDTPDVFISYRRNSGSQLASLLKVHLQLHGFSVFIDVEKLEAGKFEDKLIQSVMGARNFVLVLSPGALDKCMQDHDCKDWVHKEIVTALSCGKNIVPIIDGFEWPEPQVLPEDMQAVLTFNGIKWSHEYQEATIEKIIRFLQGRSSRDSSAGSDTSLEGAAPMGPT

Target: SARM1 (ARM-SAM-TIR, full length SARM1) (Homo sapiens, UniProt Q6SZW1)
Conditions: read-out: SARM1 IC50; ARM-SAM-TIR lysate 5 μg/mL from NRK1-HEK293T cells, 2 h pre-incubation, 5 uM NAD+, 2 hr room temperature

| SMILES | IC50 [µM] |
| --- | --- |
| [2H]C1([2H])N(c2cc(-c3ccncc3)n[nH]2)C(=O)[C@@]([2H])(C([2H])([2H])c2ccc(F)nc2)C([2H])([2H])C1([2H])[2H] | 0.101 to 0.5 |
| [2H]C1([2H])N(c2cc(-c3ccncc3)n[nH]2)C(=O)[C@]([2H])(Cc2ccc(Cl)nc2)C([2H])([2H])C1([2H])[2H] | < 0.05 |
| Cc1c(-c2ccncc2)n[nH]c1N1CCC(Cc2ccc(F)nc2)C1=O (single isomer, unassigned) | 0.501 to 1 |
| N#Cc1c(-c2ccncc2)n[nH]c1N1CCC(Cc2ccc(F)c(F)c2)C1=O (single isomer, unassigned) | > 1 |
| O=C1C(Cc2ccc(Cl)c(F)c2)CCCN1c1nc(-c2ccncc2)n[nH]1 (single isomer, unassigned) | < 0.05 |
| O=C1C(Cc2ccc(Cl)c(F)c2)CCN1c1cc(-c2ccncc2)n[nH]1 (single isomer, unassigned) | < 0.05 |
| O=C1C(Cc2ccc(Cl)cc2)CCN1c1cc(-c2ccncc2)n[nH]1 (single isomer, unassigned) | < 0.05 |
| O=C1C(Cc2ccc(Cl)nc2)CC(F)(F)CN1c1cc(-c2ccncc2)n[nH]1 (single isomer, unassigned) | 0.101 to 0.5 |
| O=C1C(Cc2ccc(Cl)nc2)CCN1c1[nH]nc(-c2ccncc2)c1F (single isomer, unassigned) | < 0.05 |
| O=C1C(Cc2ccc(Cl)nc2)CCN1c1cc(-c2ccncc2)n[nH]1 (single isomer, unassigned) | < 0.05 |
| O=C1C(Cc2cnc(Cl)c(F)c2)CC(F)(F)CN1c1cc(-c2ccncc2)n[nH]1 (single isomer, unassigned) | 0.101 to 0.5 |
| [2H]C([2H])(c1cnc(Cl)c(F)c1)C1([2H])C(=O)N(c2cc(-c3ccncc3)n[nH]2)C([2H])([2H])C([2H])([2H])C1([2H])[2H] (single isomer, unassigned) | < 0.05 |
| [2H]C1(Cc2cnc(Cl)c(F)c2)C(=O)N(c2cc(-c3ccncc3)n[nH]2)C([2H])([2H])C([2H])([2H])C1([2H])[2H] (single isomer, unassigned) | 0.051 to 0.1 |
